Publication PMC8776094, “Reactive Oxygen Species Production Is Responsible for Antineoplastic Activity of Osmium, Ruthenium, Iridium and Rhodium Half-Sandwich Type Complexes with Bidentate Glycosyl Heterocyclic Ligands in Various Cancer Cell Models” (International Journal of Molecular Sciences, 2022)

Tested on: human primary fibroblasts
Test: SRB assay, 48 h, cytostasis, primary fibroblasts
Format: cell-based
Settings: MTT 4 h and SRB 48 h
Procedure: The compounds were tested between 0.001694 and 33.3333 µM, using a 4-hour-long MTT test to assess rapid toxicity and a 48-hour-long SRB assay to assess the long-term effects of the inhibition of proliferation (cytostasis). The MTT assay assesses the activity of mitochondrial complex I and detects rapid, direct toxicity, as well as indicating apoptosis and necrosis. The SRB assay measures the total protein content that is proportional to cell numbers; therefore, the assay can detect changes in cell numbers and can thus be used as a readout for cell proliferation. The SRB assay was performed after 48 h of treatment (with the exception of L428 cells, which were tested for 96 h due to their slower proliferation rate). In this setting, the SRB assay informs us of long-term changes to cell proliferation. We assessed the maximal inhibition within that concentration range, and descriptive statistics were performed. We performed a one-way ANOVA, followed by the Kruskal–Wallis test, regardless of the normal or non-normal distribution of the data. […]
The assay was performed similarly to the method used in [73]. […] Plates were measured in a plate photometer (Thermo Scientific Multiscan GO spectrophotometer, Waltham, MA, USA) at 540 nm. […] In calculations, the readings for these wells were considered as 1 and all readings were expressed relative to these values. […]

dichloro(η^6-p-cymene)osmium(II) dimer [Os-dimer]
cytotoxic or cytostatic activity on fibroblasts (in words): None of the complexes, Os-3‒Os-6, or the Os-dimer exerted cytotoxic or cytostatic activity on fibroblasts
